# Data taken from patent publication US8846903B2, “Acyl-urea derivatives and uses thereof” (Yissum Research Development Company of the Hebrew …, priority 2007, dated 2014).
# Assays:
# [1] = in vivo; conditions: rat, po
# [2] = test system: rats; assay: Neurotoxicity, gait and stance test in rats (TD50); conditions: oral administration, median neurological toxic dose
# [3] = test system: rats; assay: Maximal electroshock seizure test (MES) in rats; format: in vivo
# Text: (§1) In the first model, the maximal electroshock seizure test (MES) was used to show efficacy for antiepileptic agents against partial and generalized seizure type epilepsy, the common epilepsy among therapy resistant epileptic patients. In the second model, the subcutaneous metrazol test (scMet) was used to measure seizure threshold and was used as a standard screening procedure to show efficacy for agents against seizure threshold and absence seizures. The models and the biological activity protocols followed in the examples presented herein have been described in the art.
# Briefly, Maximal Electroshock Seizure (MES) assay measures drug capacity to prevent seizure spread and is thus considered to model generalized tonic-clonic seizures. The assay was conducted using a supra-maximal current of 50 mA and 60 Hz for 0.2 seconds in mice, and 150 mA and 60 Hz for 0.2 seconds in rats. The current was delivered to the subjects by means of corneal electrodes to produce tonic hind limb extension. Animals not displaying tonic hind limb extension were considered affected positively by the tested compound.
# [4] = test system: rats; assay: Subcutaneous metrazol seizure threshold test (scMet) in rats; format: in vivo
# Text: as §1
# Subcutaneous Metrazole Seizure Threshold Test (scMet) assay measures the ability of an agent to elevate seizure threshold and is considered to model generalized absence seizures. The assay was performed by subcutaneous injection of 85 mg/kg of the convulsant agent metrazole that induces clonic seizures in at least 97% of all animal models (rats and mice).
SMILES,TD50 [1],TD50 in Rats [2],Fraction of rats which responded to the treatment ([3]; dose 6 mg/kg),Fraction of rats which responded to the treatment ([3]; dose 12 mg/kg),Fraction of rats which responded to the treatment ([3]; dose 25 mg/kg),Fraction of rats which responded to the treatment ([3]; dose 50 mg/kg),Fraction of rats which responded to the treatment ([4]; dose 25 mg/kg),Fraction of rats which responded to the treatment ([4]; dose 40 mg/kg),Fraction of rats which responded to the treatment ([4]; dose 50 mg/kg),Fraction of rats which responded to the treatment ([4]; dose 100 mg/kg)
"CC(C)C(C(=O)NC(N)=O)C(C)C [Compound 2, 1-(2-isopropyl-3-methylbutanoyl)urea]",56 mg/kg,55.6 mg/kg,,,,,,,,
"CCCC(C(=O)NC(N)=O)C(C)C (racemic) [Compound 1, 1-(2-isopropylpentanoyl)urea]",,,0/8,3/8,6/8,8/8,1/8,2/8,5/8,8/8
"CCCC(CCC)C(=O)NC(N)=O [Compound 6, 1-(2-propyl-pentanoyl)-urea]",232 mg/kg,,,,,,,,,
